Experiment: In vitro transdermal delivery of various active ingredients, Franz diffusion cells, excised human epidermis
Conditions: in Proprietary Encapsulation II (colloidal), over 24 hours, radiolabeled active

insulin
amount of active ingredient that penetrated the epidermis: Greater than 0.02%
